Source: ChEMBL document CHEMBL1135414, “Structure-activity relationships at human and rat A2B adenosine receptors of xanthine derivatives substituted at the 1-, 3-, 7-, and 8-positions” (J Med Chem, 2002)

Sequences of proteins named here, by UniProt entry; tags and fusion partners are left off.
UniProt P25099, whole entry: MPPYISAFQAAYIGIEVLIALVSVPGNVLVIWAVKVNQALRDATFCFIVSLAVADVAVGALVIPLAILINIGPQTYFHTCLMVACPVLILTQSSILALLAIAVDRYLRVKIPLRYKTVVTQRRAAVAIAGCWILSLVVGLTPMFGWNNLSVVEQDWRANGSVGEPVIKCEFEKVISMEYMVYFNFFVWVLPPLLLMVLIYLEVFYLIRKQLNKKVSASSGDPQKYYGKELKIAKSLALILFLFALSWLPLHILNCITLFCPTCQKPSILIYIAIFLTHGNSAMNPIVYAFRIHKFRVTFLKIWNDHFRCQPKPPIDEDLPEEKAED

Target: Adenosine receptor A1 (Rattus norvegicus, UniProt P25099)
Test: Binding affinity of specific [3H]R-PIA binding to rat Adenosine A1 receptor in HEK293 cells
Format: cell-based

## CCCCn1c(=O)[nH]c2nc[nH]c2c1=O
  Ki: 8.89 µM
